Results on 1 substance are retold here after paper PMC4540457.

Assay [1] deals with δ-opioid receptor-Gi1α (C^351I) fusion protein.
Assay [2] has the same target. This is another data set of the same source.
Assay [3] has the same target. This is another data set of the same source.
Assay [4] has the same target. The source holds these as a separate data set.

As to “DADLE [Enkephalin (2-D-Alanine-5-D-Leucine)] (peptide)”, in assay [1], the EC50 of DADLE-stimulated [^32P]GTPase, 0.025% Brij-58-treated LDM, PTX-untreated cells is 421 nM and the EC50 of DADLE-stimulated [^32P]GTPase, post-nuclear supernatant (PNS), PTX-untreated cells was found to be 35.3 nM. In addition, in assay [2], the EC50 of DADLE-stimulated [^35S]GTPγS binding, 0.025% Brij-58-treated LDM, PTX-untreated cells was determined as 81.5 nM and the EC50 of DADLE-stimulated [^35S]GTPγS binding, post-nuclear supernatant (PNS), PTX-untreated cells came out at 19.1 nM. Besides, in assay [3], the EC50 of DADLE-stimulated [^35S]GTPγS binding, 0.025% Brij-58-treated LDM, PTX-treated cells came out at 280 nM and the EC50 of DADLE-stimulated [^35S]GTPγS binding, LDM (no detergent), PTX-treated cells is 28 nM. For the same substance, in assay [4], the EC50 of DADLE-stimulated [^35S]GTPγS binding, Percoll-purified PM exposed to 0.006% Brij-58, 30°C turned out to be 120 nM and the EC50 of DADLE-stimulated [^35S]GTPγS binding, Percoll-purified PM, no detergent, 30°C is 24 nM.
